Measurements taken from patent US6344444B1 (Nutrition 21, priority 1997, dated 2002).
Where two headings read alike, the source gives them in different places.

Assays:
[1] = human volunteer, 8 g/l solution, three one-cup servings daily for three days, oral; third-day 24-hour urine

arginine-silicate-inositol complex [arginine silicate]
level of silica (SiO2) (aqueous solution 10 g/l, diluted to 0.5 g/L for measurement, 1 hour): 11.8% | level of silica (SiO2) (aqueous solution 10 g/l, diluted to 0.5 g/L for measurement, 2 hours): 10.8% | level of silica (SiO2) (aqueous solution 10 g/l, diluted to 0.5 g/L for measurement, 24 hours): 9.2% | level of silica (SiO2) (aqueous solution 10 g/l, diluted to 0.5 g/L for measurement, time 0): 17.5% | level of silica (SiO2) (aqueous solution of 0.5 g/l): 17.5% | stability of silica level (aqueous solution of 0.5 g/l, after 24 hours): stable | silicon in third-day urine as share of the silicon ingested daily [1]: approximately 25% | urinary silicon output, increase from baseline [1]: more than tenfold
